Laboratory results from patent US20240034795A1.

Target: human FcRn (Cat. No. CT009-H08H, Lot No. LC120C3101, Sino biological) (human) (UniProt P55899)
Assay: BLI (Fortebio Octet Red96), 100 nM FcRn loaded on HIS1K sensors, antibody 0-100 nM in solution

Kd: 9.88 nM
koff: 0.0077 s⁻¹
kon: 780000 M⁻¹ s⁻¹
Substance: IgG1 (adalimumab) (antibody)
